Details in all cases: dose 100.0 nM, time 2.0 hrs
Test [1] deals with Mitogen-activated protein kinase 8 (Homo sapiens, UniProt P45983).
For test [2], the target named is Glycogen synthase kinase-3 beta (Homo sapiens, UniProt P49841).
The target of test [3] is Glycogen synthase kinase-3 alpha (Homo sapiens, UniProt P49840).
In test [4] the target is Mitogen-activated protein kinase 9 (Homo sapiens, UniProt P45984).
Test [5] deals with Mitogen-activated protein kinase 14 (Homo sapiens, UniProt Q16539).

By UniProt entry, the sequences of proteins in these tests, tags left out. Where a name states a change or a piece, a line headed by the entry shows the natural chain unless it says otherwise.
UniProt P45983: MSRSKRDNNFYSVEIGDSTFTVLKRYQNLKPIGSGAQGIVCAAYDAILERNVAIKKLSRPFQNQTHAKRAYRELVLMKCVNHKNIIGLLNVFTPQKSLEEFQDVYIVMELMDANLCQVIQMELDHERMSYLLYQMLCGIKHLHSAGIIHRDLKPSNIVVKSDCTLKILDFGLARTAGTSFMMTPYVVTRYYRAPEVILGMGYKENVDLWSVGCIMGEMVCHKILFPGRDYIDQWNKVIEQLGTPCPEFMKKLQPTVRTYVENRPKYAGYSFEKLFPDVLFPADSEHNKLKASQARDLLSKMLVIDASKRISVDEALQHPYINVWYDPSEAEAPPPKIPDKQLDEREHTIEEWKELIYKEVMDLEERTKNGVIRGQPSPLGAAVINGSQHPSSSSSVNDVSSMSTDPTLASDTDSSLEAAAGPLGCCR
UniProt P49841: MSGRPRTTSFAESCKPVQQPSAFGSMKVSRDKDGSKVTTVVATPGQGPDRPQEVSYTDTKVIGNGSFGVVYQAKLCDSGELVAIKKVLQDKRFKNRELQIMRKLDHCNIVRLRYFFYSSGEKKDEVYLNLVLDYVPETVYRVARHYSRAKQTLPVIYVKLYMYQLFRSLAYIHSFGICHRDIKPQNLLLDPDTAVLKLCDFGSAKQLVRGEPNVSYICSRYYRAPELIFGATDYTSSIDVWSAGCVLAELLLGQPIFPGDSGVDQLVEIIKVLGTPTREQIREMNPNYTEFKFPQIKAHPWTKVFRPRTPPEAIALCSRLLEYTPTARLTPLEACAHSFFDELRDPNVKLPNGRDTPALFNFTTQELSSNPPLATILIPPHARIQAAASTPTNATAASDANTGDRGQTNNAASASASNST
UniProt P49840: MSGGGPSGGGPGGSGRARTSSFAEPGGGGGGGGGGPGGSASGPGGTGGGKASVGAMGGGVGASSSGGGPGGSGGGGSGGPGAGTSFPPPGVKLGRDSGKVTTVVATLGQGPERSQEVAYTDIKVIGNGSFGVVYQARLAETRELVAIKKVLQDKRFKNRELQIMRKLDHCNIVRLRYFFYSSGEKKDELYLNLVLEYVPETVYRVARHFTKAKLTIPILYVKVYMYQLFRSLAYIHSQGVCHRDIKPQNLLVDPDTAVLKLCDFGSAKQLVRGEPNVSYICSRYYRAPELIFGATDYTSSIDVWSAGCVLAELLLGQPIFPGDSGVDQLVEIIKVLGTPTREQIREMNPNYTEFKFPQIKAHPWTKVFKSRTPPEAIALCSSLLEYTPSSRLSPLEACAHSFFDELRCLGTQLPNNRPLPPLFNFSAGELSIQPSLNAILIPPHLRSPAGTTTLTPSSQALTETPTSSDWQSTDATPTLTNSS
UniProt Q16539, whole entry: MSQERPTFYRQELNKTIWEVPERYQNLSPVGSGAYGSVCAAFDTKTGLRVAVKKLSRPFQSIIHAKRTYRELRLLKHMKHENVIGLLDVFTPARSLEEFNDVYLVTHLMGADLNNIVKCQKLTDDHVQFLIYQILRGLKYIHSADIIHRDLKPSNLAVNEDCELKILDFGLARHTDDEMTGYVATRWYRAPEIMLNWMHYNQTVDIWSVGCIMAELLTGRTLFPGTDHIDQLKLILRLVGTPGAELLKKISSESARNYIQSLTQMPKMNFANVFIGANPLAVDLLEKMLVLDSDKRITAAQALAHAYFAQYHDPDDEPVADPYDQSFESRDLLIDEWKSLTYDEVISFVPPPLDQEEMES

Broadly, the inhibition is the share of the control response that was lost under treatment. A lower inhibition goes with a weak effect.

Take `NC(=O)c1nn(-c2ccnc(N[C@H]3CCCN(C(=O)C4CC4)C3)n2)cc1/C=C/c1ccccc1`: the inhibition was 50% in test [1]; 91.5% in test [2]; 70.5% in test [3]; 30% in test [4]; 0.7% in test [5].

Source of the values: ChEMBL document CHEMBL6121018, “Targeting JNK3 for Alzheimer's disease: Design and synthesis of novel inhibitors with aryl group diversity utilizing wide pocket” (Eur J Med Chem, 2025).
